Each structure is given as a SMILES string.

Among the data in ChEMBL document CHEMBL3352379, “Potent heterocyclic ligands for human complement c3a receptor” (J Med Chem, 2014) are Activity values, retold here.

The target of the test is T1, C3a anaphylatoxin chemotactic receptor (Homo sapiens) (UniProt Q16581).
T1 sequence (whole entry): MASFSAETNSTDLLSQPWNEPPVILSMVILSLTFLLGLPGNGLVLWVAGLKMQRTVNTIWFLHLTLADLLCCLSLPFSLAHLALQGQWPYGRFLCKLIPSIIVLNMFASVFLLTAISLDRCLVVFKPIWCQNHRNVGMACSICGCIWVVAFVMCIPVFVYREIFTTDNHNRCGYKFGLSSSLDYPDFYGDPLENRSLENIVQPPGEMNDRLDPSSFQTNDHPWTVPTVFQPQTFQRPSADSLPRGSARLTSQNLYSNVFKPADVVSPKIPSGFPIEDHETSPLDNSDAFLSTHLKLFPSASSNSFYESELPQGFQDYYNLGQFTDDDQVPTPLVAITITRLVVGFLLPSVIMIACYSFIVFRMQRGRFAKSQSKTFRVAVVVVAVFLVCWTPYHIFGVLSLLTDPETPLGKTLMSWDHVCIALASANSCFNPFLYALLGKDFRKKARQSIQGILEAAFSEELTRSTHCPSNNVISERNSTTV
Briefly: Partial agonist activity against C3AR in HMDMs assessed as increase in intracellular calcium release by Fluo-3 AM dye based FLIPR assay relative to 1 uM C3a. Type of test: functional, cell-based.

As to `N=C(N)NCCC[C@H](NC(=O)c1coc(C(c2ccccc2)c2ccccc2)n1)C(=O)O`, the Activity is under 50%.
